Assay results published in patent publication US20200316038A1, “METHODS AND COMPOSITIONS FOR TREATING UREA CYCLE DISORDERS, IN PARTICULAR OTC DEFICIENCY” (CAMP4 THERAPEUTICS CORPORATION, priority 2017, published 2020).

Experiments:
ASL = experiment: RNA-seq, ASL expression in compound-treated primary human hepatocytes; type: cell-based; settings: compounds that significantly increase ASL expression
ARG1 = experiment: RNA-seq, ARG1 expression in compound-treated primary human hepatocytes; type: cell-based; settings: compounds that significantly increase ARG1 expression
ASS1 = experiment: RNA-seq, ASS1 expression in compound-treated primary human hepatocytes; type: cell-based
[1] = system: multiple urea cycle-related genes; experiment: RNA-seq, compounds that modulate multiple urea cycle-related genes; type: cell-based; settings: primary human hepatocytes
CPS1 = experiment: RNA-seq, CPS1 expression in compound-treated primary human hepatocytes; type: cell-based

| Molecule | ASL expression, Fold change (Log 2) vs untreated (ASL) | ARG1 expression, Fold change (Log 2) vs untreated (ARG1) | Fold change (Log 2) vs untreated (ASS1) | NAGS expression, Fold change (Log 2) vs untreated (NAGS) | number of urea cycle genes whose expression was significantly up-regulated [1] | Up-regulated Genes ([1]; urea cycle-related genes significantly increased by the compound) | Fold change (Log 2) vs untreated (CPS1) |
| --- | --- | --- | --- | --- | --- | --- | --- |
| CC[C@@H]1/C=C/C=C/C[C@H](C)[C@H](O)[C@](C)(O)C(=O)[C@H](C)[C@@H](O)[C@H](C)C(=O)[C@H](C)[C@@H](O)[C@H](C)/C=C/C(=O)O[C@H]2[C@@H](C)[C@@H](CC1)O[C@@]1(CC[C@@H](C)[C@@H](C[C@H](C)O)O1)[C@@H]2C [Oligomycin A] | 0.84 Log 2 | 0.75 Log 2 | – | – | – | – | – |
| BMP2: Bone morphogenetic protein 2, TGF-B superfamily; BMPR1A activator | – | 0.81 Log 2 | 0.75 Log 2 | 0.6 Log 2 | four | ASS1, CPS1, NAGS, ARG1 | 1.31 Log 2 |
